For experiment [1], the system named is PC3 human prostate adenocarcinoma. Put plainly: Antitumoral effect, MTS metabolism assay, PC3. The experiment is classed as cell-based. The conditions noted are these: read-out: IC50 PC3, 72 hours. (Tetrazolium assays rely on reduction of a dye to a coloured formazan, in cell work by metabolically active cells.)
For experiment [2], the system named is HCT116 human colorectal carcinoma. In words: Antitumoral effect, MTS metabolism assay, HCT116. The experiment is classed as cell-based. The conditions noted are these: read-out: IC50 HCT116, 72 hours.
For experiment [3], the system named is HCT116 cells. In words: Iron competition assay with DFO, MTS assay. It is filed as cell-based, human. The conditions noted are these: 24 hours.
For a further experiment, the system named is HT-29 cells. In words: In vivo xenograft murine model, colorectal cancer. The conditions noted are these: 2 mg/kg intravenous.
The subject of experiment [4] is MCF7 human breast adenocarcinoma. In words: Antitumoral effect, MTS metabolism assay, MCF7. The experiment is classed as cell-based. The conditions noted are these: read-out: IC50 MCF7, 72 hours.
Another experiment relates to U251 human glioblastoma. In words: Antitumoral effect, MTS metabolism assay, U251. The experiment is classed as cell-based. The conditions noted are these: read-out: IC50 U251, 72 hours.
Experiment [5] has as its system AML12 murine immortalized hepatocyte cell line. Put plainly: Toxicity for non-tumoral cells, MTS assay, AML12. The experiment is classed as cell-based.
Experiment [6] deals with HCT116 cells. Put plainly: Fluorescence imaging for compound cellular localization. The conditions noted are these: 1 μM, 24 hours incubation.

Results on 1 substance are retold here after patent US20250064840A1, “DRUG DELIVERY SYSTEMS BASED ON ENDOPEROXIDES USEFUL IN DIAGNOSIS AND THERAPY, AND METHODS THEREOF” (FACULDADE DE FARMÁCIA DA UNIVERSIDADE DE LISBOA, priority 2021, published 2025).

Usually IC50 stands for the midpoint of a concentration-inhibition curve.

For “5-hydroxydispiro[adamantane-2,3′-[1,2,4,5]tetraoxane-6′,1″-cyclohexan]-3″-yl (3-hydroxy-2-methyl-6-(((2S, 4S)-4,5,12-trihydroxy-4-(2-hydroxyacetyl)-10-methoxy-6,11-dioxo-1,2,3,4,6,11-hexahydrotetracen-2-yl)oxy)tetrahydro-2H-pyran-4-yl)carbamate”, the IC50 in experiment [1] came to 3.07 µM; in experiment [2], 3.32 µM; in experiment [4] it was 6.69 µM; with U251 human glioblastoma, 5.21 µM; in experiment [5] (read-out: IC50 AML12, non-tumorigenic cell line, 72 hours, MTS), 730 µM. In the experiment with HCT116 cells [3] (10 μM compound alone, versus DMSO), the “induction of cell death (cell viability, MTS)” value was “induces cell death”. For the same substance, the “reduction in potency with DFO versus compound alone” value in the experiment on HCT116 cells [3] (10 μM compound together with 1 μM DFO) was “significant reduction”. Moreover, the “tumour volume versus vehicle control at day 12” value in the experiment on HT-29 cells (day 12, p<0.05) was “significant reduction in tumour volume”. In addition, the “reduction of the tumour mass versus negative control and vehicle control” value in the experiment with HT-29 cells (eight injections) is recorded as “higher reduction of the tumour mass”. Further, the “reduction of tumour mass compared with doxorubicin” value in the experiment with HT-29 cells (eight injections) is “more efficient in reducing the tumour mass than doxorubicin”. Moreover, the Selectivity (IC50Compound II/IC50 Doxorubicin) in experiment [5] (AML12, ratio to doxorubicin) turned out to be 4290. For the same substance, the “cellular localization of fluorescence” value in the experiment on HCT116 cells [6] is “activated and released doxorubicin in the cytosol”.
